Laboratory results published in US5747521A, “N-cinnamoyl-2-methyl-5-methoxy-3-indoleacetic acid ester, and pharmaceutical preparation containing the same” (priority 1992, dated 1998).
Like-named read-outs stand apart in the source and are kept apart here.

Test: in vivo
Conditions: mouse, single dose, fasted mice, mortality up to 72 hours

Question: Which results are given for COc1ccc2c(c1)c(CC(=O)O)c(C)n2C(=O)C=Cc1ccccc1 [Cinmetacin, N-cinnamoyl-2-methyl-5-methoxy-3-indoleacetic acid]?
Answer: LD50 at 72 h (ip, into the abdominal cavity, read-out: LD50 Abdominal administration): 495 mg/kg; LD50 at 72 h (oral, read-out: LD50 Oral administration): 820 mg/kg
